Measurements reported in patent JP2007175055A.

These substances were tested against OKT4, CD4 V3V4-specific mouse monoclonal antibody (Ortho Diagnostic Systems) (assay: mutant rsCD4 at 1 ug/ml blocking OKT4 binding to CD4+ cells).

percent block of OKT4 binding to CD4+ cells [%] | Substance
60 | rsCD4 mouse/human substitution mutant AA121-AA124 (V2) (from UniProt P01730 26-400) (receptor)
60 | rsCD4 mouse/human substitution mutant AA127-AA134 (V2) (from UniProt P01730 26-400) (receptor)
60 | rsCD4 mouse/human substitution mutant AA220-AA226 (V3) (from UniProt P01730 26-400) (receptor)
60 | rsCD4 mouse/human substitution mutant AA240-AA252 (V3) (from UniProt P01730 26-400) (receptor)
